scFv variants of Ab-14 (heavy chain) against a SARS-CoV-2 spike peptide

All variants were tested on one target, the spike HR2 peptide PDVDLGDISGINAS (SARS-CoV-2).

Each scFv is VH, three GGGGS repeats, VL, as in the parent Ab-14, and differs from it in the CDRs of the heavy chain only.
VH: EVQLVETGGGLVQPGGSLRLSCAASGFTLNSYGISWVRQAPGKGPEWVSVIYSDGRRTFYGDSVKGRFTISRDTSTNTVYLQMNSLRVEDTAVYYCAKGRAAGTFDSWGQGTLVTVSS
VL: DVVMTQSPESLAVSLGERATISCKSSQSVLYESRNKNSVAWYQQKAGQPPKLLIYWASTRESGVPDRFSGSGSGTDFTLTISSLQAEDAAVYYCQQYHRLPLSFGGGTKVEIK

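Designed CDR sequences, proposed from the first random library and measured here. Several design methods are mixed in this list. The assay is AlphaSeq: two haploid yeast populations carry antibody and antigen on their surface. Mating (16 h, 30 °C) was followed by selection of diploids and sequencing of their barcodes. Each replicate has its own calibration line, from reference interactions of the BCL2 family. Mating was done six times.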

The parent's heavy chain CDRs are GFTLNSYGIS, VIYSDGRRTFYGDSVK, GRAAGTFDS; each variant's own CDRs replace them letter for letter. Numbers give log10(Kd / nM), so 0 is 1 nM and 3 is 1 µM. Smaller is tighter. Averages over replicates are reported, and they cover detected replicates only. "nd" means that the variant was in the library but no mating with the target was seen in any replicate; the authors take this as a sign of poor binding, and no number exists. Three control strains display no target. For all heavy chain designs, 1% of the pairings with them gave a signal, with a median of 2.08 and one signal in twenty below 0.84, so weak values seen in few replicates may be background. The authors averaged sequences with at least three values out of six and counted those with two or fewer as poor binders. The parent sequence was in this pool as ten entries: three were never detected, three once, and four in most replicates, with averages from 0.34 to 2.37. A sequence measured in both rounds can read differently, since the two assays cover different ranges.

With GFDLNEYGIS, VIYADGRRTFYADSVK, GQAAGTFVL the result was 0.74 (4 of 6 replicates).
With KFTLNEYGIS, VIYSDGRRTFYGDSVK, GRTAGTFDS the result was 1.52 (5 of 6 replicates).
With GFTLNSYGIS, VIYADGRRTFYGDSVK, GQAAGTFKM the result was nd (0 of 6 replicates).
With GFDLNSYGIS, VIYSDGRRTFYQDSVK, GRMAGTFDS the result was 1.41 (6 of 6 replicates).
With GFDLDEYGIS, VIYADGKRTAYADKVK, GNVAGTFDV the result was -0.30 (6 of 6 replicates).
With GFTLNEYGIS, VIYSDGRRTFYSDDVK, GRFAGTFDS the result was 0.39 (6 of 6 replicates).
With GFELNEYGIS, VIYSDGRRTFYGDSVK, GRTAGTFDA the result was -0.67 (4 of 6 replicates).
With GMTLNSYGIS, VIYADGRRTFYSDSVK, GRAAGTFDS the result was 0.03 (6 of 6 replicates).
With GFDLNEYGIS, VIYADGRRTAYADSVK, GENAGTFVV the result was 1.71 (6 of 6 replicates).
With GFTLNSYGIS, VIYSDGWRTFYGDSVK, GRAAGTFDS the result was nd (0 of 6 replicates).
With GFYLNDYGIS, VIYSDGRRTFYGDSVK, GRMAGTFIS the result was nd (0 of 6 replicates).
With GETLNSYGIS, VIYSDGRRTFYNDSVK, GRAAGTFDS the result was nd (0 of 6 replicates).
With GKSLDDYGIS, VIYADGQRTSYTETVK, GNNGGVFIY the result was nd (0 of 6 replicates).
With GFDLNEYGIS, VIYADGKRTAYANSVK, GEVAGTFDQ the result was -0.45 (6 of 6 replicates).
With GFDLNEYGIS, VIYADGRRTAYADSVK, GNNAGTFDI the result was -0.08 (6 of 6 replicates).
With GKNLDEYGIS, VIYADGMRSMYADSVK, GGIDGWTFI the result was nd (0 of 6 replicates).
With KFTLNSYGIS, VIYSDGKRTFYSDSVK, GRTAGTFDS the result was 0.44 (6 of 6 replicates).
With GFSLNSYGIS, VIYSDGRRTIYGDSVK, GYAAQTFDS the result was 0.84 (3 of 6 replicates).
With GFSLNSYGIS, VIYSDGRRTFYADSVK, GHAAGTFDK the result was 0.55 (6 of 6 replicates).
With GFTLDEYGIS, VIYADGRRTFYADSVK, GNVAGTFDI the result was -0.37 (6 of 6 replicates).
With GFTLNEYGIS, VIYSDGRRTFLTDSVK, GRFFGTFDS the result was nd (0 of 6 replicates).
With GFGLNSYGIS, VIYSDGRRTFYGDSVK, GEAAGTFDS the result was 0.99 (6 of 6 replicates).
With GFWLNLYGIS, VIYSDGRRTFYGDSVK, SRAAGTFDS the result was 2.18 (1 of 6 replicates).
With GFTLNSYGMS, VIYSDGRRTSYSDSVK, GRAAGTFDS the result was 2.50 (4 of 6 replicates).
With GFHLNSYGIS, VIYSDGRRTFYADSVK, GHEAGTFDS the result was 0.40 (6 of 6 replicates).
With GDTLNSYGIS, VIYSDGRRTFYGDSVK, GRAAGTFDS the result was 1.98 (1 of 6 replicates).
With GFDLNSYGIS, VIYSDGRRTFYGDMVK, GEAAGTFDS the result was 0.12 (5 of 6 replicates).
With GFDLDEYGIS, VIYADGKRKAYADSVK, GNVAGTFDL the result was -0.62 (6 of 6 replicates).
With GFDLNEYGIS, VIYSDGRRTFYGDSVK, GKAAGTFDQ the result was 1.31 (6 of 6 replicates).
With GFDLNSYGIS, VIYSDGRRTFYADSVK, GRTAGTFDN the result was 0.00 (6 of 6 replicates).
With GFTLKSYGIS, VIYADGKRTFYGDSVK, GRAAGTFDS the result was 0.75 (6 of 6 replicates).
With GFILDEYGIS, VIYADGQRSAYKDSVK, GVDDATGVI the result was nd (0 of 6 replicates).
With GFDLNEYGIS, VIYADGRRTAYSDSVK, GEVAGTFVI the result was -0.88 (4 of 6 replicates).
With GFTLNEFGIS, VIYSDGRRTFYTDSVK, GRLAGTFDS the result was 0.71 (6 of 6 replicates).
With GFTLNSYGIS, VIYSDGRRTHYGDSVK, GRSAGTFHS the result was nd (0 of 6 replicates).
With GFTLNSYGIS, VIYSDGRRTIYGDSVK, GRAAGSFND the result was 1.95 (1 of 6 replicates).
With GFDINEYGVS, VIYADGMRAFYTDSVK, GKGAGIALV the result was 0.27 (6 of 6 replicates).
With GFELNEYGIS, VIYADGMKQAYRDAVK, GGIAGNFMM the result was 1.38 (4 of 6 replicates).
With GFNLNSYGIS, VIYSDGRRTFYVDKVK, GRQAGTFDS the result was 1.71 (3 of 6 replicates).

From the AlphaSeq antibody data of Li et al. 2023 (doi:10.1038/s41467-023-39022-2), copy in the FLAb collection.